# Data published in PubChem BioAssay AID493249 (Broad Institute, 2011).
# Only a part is listed here, and it is no random draw. Active and inactive are the calls of the source.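 Rule for the calls: active = compounds lowering cell viability with a fitted IC50 within ten times their top tested dose; inconclusive = flat viability loss of 30 to 70 percent, or poor fit; inactive = the rest.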
# Assay: toxicity in U2OS HRE-luc reporter cells, dose response, cytotoxicity control for HIF pathway activator project, cell-based, dry powder, set 7 (AID 493249)
# Conditions: viability toxicity counter-screen, CellTiter-Glo, at 38 µM (top of the series)
# Summary of the method: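 measured by = CellTiter-Glo luminescence | assay system = human osteosarcoma U2OS cells stably expressing 3×HRE-luciferase reporter | medium = phenol red-free DMEM, 10% FBS, no hygromycin | incubation = 24 h cell attachment, then 24 h compound exposure, 37 °C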
structure (smiles),measurement,value
O=c1[nH]c2ccccc2n1C1CCN(Cc2ccc(O)c3ncccc23)CC1,"activity change, negative = toxicity",inactive: -2.85%
